Article PMC4990970 (2016)

Molecular target: AtBAG5-long (Arabidopsis thaliana Bcl-2-associated athanogene 5, residues 49-153) (Arabidopsis thaliana, UniProt O65373 49-153)
Experiment: ITC; with Ca2+

B1: ATPase domain of human Hsp70 (called Hsc70 in the results) (domain or fragment)
chain: not shown
Q: For B1, which Kd is on record?
A: 17.9 µM
